Results as given in BindingDB's records for doi:10.1021/jm960455s (Bristol-Myers Squibb Pharmaceutical Research Institute, 1997).

Experiment: Effective concentration for stimulation of platelet aggregation

With `CC(C)C[C@H](NC(=O)[C@H](CC(C)C)NC(=O)[C@H](Cc1ccccc1)NC(=O)CCN)C(=O)N[C@@H](CCCNC(=N)N)C(N)=O` [(S)-2-[(S)-2-(3-Amino-propionylamino)-3-phenyl-propionylamino]-4-methyl-pentanoic acid [(S)-1-((S)-1-carbamoyl-4-guanidino-butylcarbamoyl)-3-methyl-butyl]-amide] the EC50 was 11.7 µM.
